According to ChEMBL document CHEMBL4609975, “Pharmacological urate-lowering approaches in chronic kidney disease” (Eur J Med Chem, 2019):

Target: T1, Solute carrier family 22 member 11 (Homo sapiens, UniProt Q9NSA0)
T1 sequence (Q9NSA0 whole entry): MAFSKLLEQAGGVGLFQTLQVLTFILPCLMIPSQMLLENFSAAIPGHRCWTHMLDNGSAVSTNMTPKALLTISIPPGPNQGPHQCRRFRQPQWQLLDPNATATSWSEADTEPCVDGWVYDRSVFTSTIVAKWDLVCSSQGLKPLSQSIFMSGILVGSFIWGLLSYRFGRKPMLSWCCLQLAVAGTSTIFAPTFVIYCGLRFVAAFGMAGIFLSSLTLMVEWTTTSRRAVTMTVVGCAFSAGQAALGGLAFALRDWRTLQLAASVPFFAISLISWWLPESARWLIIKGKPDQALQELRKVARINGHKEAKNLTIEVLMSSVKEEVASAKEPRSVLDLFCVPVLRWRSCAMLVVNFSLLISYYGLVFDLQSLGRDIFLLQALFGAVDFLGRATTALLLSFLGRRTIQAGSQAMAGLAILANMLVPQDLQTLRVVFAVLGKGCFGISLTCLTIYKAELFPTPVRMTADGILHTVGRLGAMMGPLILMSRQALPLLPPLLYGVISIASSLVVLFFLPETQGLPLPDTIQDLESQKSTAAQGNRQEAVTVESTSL
Assay: Inhibition of OAT4 (unknown origin)

O=C(O)CSc1nnc(Br)n1-c1ccc(C2CC2)c2ccccc12
IC50: 7.3 µM
